For one test, the target named is human μ opiate receptor (Homo sapiens, UniProt P35372). In words: μ opiate receptor binding assay with [3H]-naloxone, membrane preparation of CHO-K1 cells (WGA-SPA beads). The settings on record: for MOP % Inhibition @1 μM / % inhibition (μ) [1 μM]: test concentration 1 μM.
The target of a further test is ORL1 receptor (Homo sapiens, UniProt P41146). To be noted: for ORL1 % Inhibition @ 1 μM / % inhibition (ORL1) [1 μM]: test concentration 1 μM.
Where [1] appears, read: read-out: Ki (μ) mean [μm], mean.
Where [2] appears, read: read-out: Ki (ORL1) mean [μm], mean.

Amino acid sequences for entries named in this document (tags omitted). A change or cut given only in a name is not applied to a line headed by its entry.
UniProt P35372, whole entry, looked up: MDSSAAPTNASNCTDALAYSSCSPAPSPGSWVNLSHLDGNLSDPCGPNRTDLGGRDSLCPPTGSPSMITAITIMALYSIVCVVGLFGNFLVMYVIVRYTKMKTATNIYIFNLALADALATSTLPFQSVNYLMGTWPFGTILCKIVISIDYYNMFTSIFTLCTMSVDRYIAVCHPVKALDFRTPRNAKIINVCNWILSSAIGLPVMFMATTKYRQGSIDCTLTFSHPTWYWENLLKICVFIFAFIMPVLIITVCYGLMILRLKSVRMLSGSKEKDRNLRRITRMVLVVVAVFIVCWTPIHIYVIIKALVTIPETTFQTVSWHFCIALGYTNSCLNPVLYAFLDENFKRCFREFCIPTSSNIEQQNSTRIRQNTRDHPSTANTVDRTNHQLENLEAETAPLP
UniProt P41146: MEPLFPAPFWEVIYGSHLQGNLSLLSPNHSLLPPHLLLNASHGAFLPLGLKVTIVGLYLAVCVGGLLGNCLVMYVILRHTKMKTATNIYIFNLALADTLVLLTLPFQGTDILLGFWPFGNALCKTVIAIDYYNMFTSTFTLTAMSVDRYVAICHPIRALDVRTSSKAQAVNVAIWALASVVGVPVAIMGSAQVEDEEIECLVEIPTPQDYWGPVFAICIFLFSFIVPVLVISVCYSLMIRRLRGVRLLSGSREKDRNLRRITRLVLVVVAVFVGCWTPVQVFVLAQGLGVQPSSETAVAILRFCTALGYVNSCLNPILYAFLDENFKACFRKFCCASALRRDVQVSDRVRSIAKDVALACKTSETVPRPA

Where two headings read alike, the source gives them in different places.

What is called Ki is the equilibrium dissociation constant of an inhibitor or competing ligand from its target. As to `CC(=O)NCC(=O)N1CCC2(CCC(c3ccccc3)(N(C)C)CC2)C1` (centres unmarked), the Ki was determined as 0.0145 µM at human μ opiate receptor (read-out: MOP Ki) and 0.021 µM at ORL1 receptor (read-out: ORL1 Ki). The “MOP % Inhibition @1 μM” value on human μ opiate receptor worked out at 96%. Also, the “ORL1 % Inhibition @ 1 μM” value at ORL1 receptor is 84%.
On the same counts, the results for `CC(=O)NCCC(=O)N1CCC2(CCC(c3ccccc3)(N(C)C)CC2)C1` (centres unmarked) are 0.069 µM, 0.227 µM, 90% and 60%.
The corresponding values for `CN(C)C1(c2ccccc2)CCC2(CC1)CC(=O)N(CCC(C)(C)C(=O)NC1CCS(=O)(=O)CC1)C2` (centres unmarked) are 0.034 µM, 0.215 µM, 92% and 54%.
`CCCCC1(N(C)C)CCC2(CCN(C(=O)Cc3ccc(C)s3)C2)CC1` (centres unmarked): the figures for the Ki at human μ opiate receptor (setting [1]) and at ORL1 receptor (setting [2]) were 0.013 µM and 0.17 µM, respectively. Besides, the “% inhibition (μ) [1 μM]” value on human μ opiate receptor is recorded as 97%. Besides, the “% inhibition (ORL1) [1 μM]” value at ORL1 receptor is given as 46.5%.
The corresponding values for `CN(C)C1(c2cccs2)CCC2(CCN(C(=O)OC(C)(C)C)C2)CC1` (centres unmarked) are 0.0025 µM, 0.0135 µM, 98.5% and 79%.
For the molecule `CN(C)C1(c2ccccc2)CCC2(CC1)CC(=O)N(CCCC(=O)NCC1CCS(=O)(=O)CC1)C2` (centres unmarked), the Ki on human μ opiate receptor (read-out: MOP Ki) turned out to be 0.39 µM; on ORL1 receptor (read-out: ORL1 Ki), 0.44 µM. In addition, at human μ opiate receptor, the “MOP % Inhibition @1 μM” value is reported as 74%. In addition, the “ORL1 % Inhibition @ 1 μM” value at ORL1 receptor amounted to 48%.
The corresponding values for `CN(C)[C@]1(c2ccccc2)CC[C@]2(CC1)CC(=O)N(CC(=O)NCCCC#N)C2` are 0.0114 µM, 0.031 µM, 96% and 76%.
On to `CN(C)[C@]1(c2ccccc2)CC[C@]2(CC1)CC(=O)N(CCC(=O)NCCC#N)C2`, for which the Ki at human μ opiate receptor (read-out: MOP Ki) came to 0.1 µM; at ORL1 receptor (read-out: ORL1 Ki) it was 0.3 µM. At human μ opiate receptor, the “MOP % Inhibition @1 μM” value worked out at 87%. For the same molecule, at ORL1 receptor, the “ORL1 % Inhibition @ 1 μM” value was 63%.
Regarding `CN(C)C(=O)CCN1CCC2(CCC(c3cccs3)(N(C)C)CC2)C1` (centres unmarked), the figures for the Ki on human μ opiate receptor (setting [1]) and on ORL1 receptor (setting [2]) were 0.00445 µM and 0.0116 µM, respectively. Besides, the “% inhibition (μ) [1 μM]” value on human μ opiate receptor is 94.5%. Also, the “% inhibition (ORL1) [1 μM]” value at ORL1 receptor is reported as 91%.
On to `CN(C)[C@]1(c2ccccc2)CC[C@]2(CC1)CC(=O)N(CC(N)=O)C2`, for which the Ki is 0.265 µM on human μ opiate receptor (read-out: MOP Ki) and 0.165 µM on ORL1 receptor (read-out: ORL1 Ki). In addition, the “ORL1 % Inhibition @ 1 μM” value at ORL1 receptor is listed as 56%.
As for `CN(C)C1(c2ccccc2)CCC2(CC1)CC(=O)N(CCC(C)(C)C(=O)NCc1ccncc1)C2` (centres unmarked), the Ki at human μ opiate receptor (read-out: MOP Ki) is 0.0315 µM; at ORL1 receptor (read-out: ORL1 Ki), 0.0275 µM. Also, the “MOP % Inhibition @1 μM” value at human μ opiate receptor amounted to 96%. Moreover, the “ORL1 % Inhibition @ 1 μM” value on ORL1 receptor stood at 93%.
For the molecule `CN(C)C1(Cc2ccccc2)CCC2(CCN(Cc3ccccc3)C2)CC1` (centres unmarked), the Ki at human μ opiate receptor (setting [1]) came out at 0.0036 µM; at ORL1 receptor (setting [2]), 0.033 µM. Further, on human μ opiate receptor, the “% inhibition (μ) [1 μM]” value worked out at 94.5%. In addition, on ORL1 receptor, the “% inhibition (ORL1) [1 μM]” value was determined as 80%.
Turning to `CNC(=O)CCCN1CC2(CCC(c3ccccc3)(N(C)C)CC2)CC1=O` (centres unmarked), the Ki is 0.0965 µM at human μ opiate receptor (read-out: MOP Ki) and 0.082 µM on ORL1 receptor (read-out: ORL1 Ki). In addition, the “MOP % Inhibition @1 μM” value on human μ opiate receptor turned out to be 87%. The “ORL1 % Inhibition @ 1 μM” value at ORL1 receptor worked out at 71%.
As for `Cc1ccc(C2(N(C)C)CCC3(CC2)CC(=O)N(Cc2ccncc2)C3)s1` (centres unmarked), the inhibition constant Ki was 0.00905 µM at human μ opiate receptor (setting [1]) and 0.118 µM at ORL1 receptor (setting [2]). For the same molecule, the “% inhibition (μ) [1 μM]” value on human μ opiate receptor was determined as 91.5%. The “% inhibition (ORL1) [1 μM]” value on ORL1 receptor is reported as 50%.
`CN(C)[C@]1(c2cnccn2)CC[C@]2(CC1)CC(=O)N(CCC(N)=O)C2`: on human μ opiate receptor (read-out: MOP Ki), the Ki came out at 1.05 µM. For the same molecule, the “MOP % Inhibition @1 μM” value at human μ opiate receptor stood at 46%. Moreover, the “ORL1 % Inhibition @ 1 μM” value on ORL1 receptor is given as 10%.
`CN(C)C1(C2CCCC2)CCC2(CCN(Cc3ccccc3)C2)CC1` (centres unmarked): the results for the inhibition constant (Ki) at human μ opiate receptor (setting [1]) and at ORL1 receptor (setting [2]) were 0.0032 µM and 0.0037 µM, respectively. For the same molecule, on human μ opiate receptor, the “% inhibition (μ) [1 μM]” value came to 100%. In addition, the “% inhibition (ORL1) [1 μM]” value on ORL1 receptor is listed as 94%.

Values taken from US10214520B2, “Substituted azaspiro(4.5)decane derivatives” (priority 2014, dated 2019).
